Measurements from patent publication US20230227428A1 (Anaxis Pharma Pty Ltd, priority 2020, published 2023).

By UniProt entry, the sequences of proteins in these tests, tags left out. Where a name states a change or a piece, a line headed by the entry shows the natural chain unless it says otherwise.
UniProt Q9Y572: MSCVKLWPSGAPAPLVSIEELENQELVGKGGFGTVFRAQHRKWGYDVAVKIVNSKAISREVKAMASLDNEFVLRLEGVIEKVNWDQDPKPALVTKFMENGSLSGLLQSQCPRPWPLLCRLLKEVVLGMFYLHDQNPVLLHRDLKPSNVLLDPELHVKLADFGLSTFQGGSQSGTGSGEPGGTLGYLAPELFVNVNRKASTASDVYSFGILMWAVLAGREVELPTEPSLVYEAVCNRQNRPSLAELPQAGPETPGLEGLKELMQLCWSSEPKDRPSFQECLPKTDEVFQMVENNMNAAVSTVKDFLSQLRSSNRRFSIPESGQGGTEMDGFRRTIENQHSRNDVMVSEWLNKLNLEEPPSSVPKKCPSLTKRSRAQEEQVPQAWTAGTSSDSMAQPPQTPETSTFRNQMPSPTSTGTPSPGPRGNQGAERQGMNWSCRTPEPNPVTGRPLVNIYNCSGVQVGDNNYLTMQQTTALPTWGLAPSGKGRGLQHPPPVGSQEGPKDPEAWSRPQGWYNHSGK

What was measured:
Details in all cases: equilibrium dissociation constant
RIP1 = molecular target: T1, RIP1 (Homo sapiens, UniProt Q13546); assay: KINOMEscan binding affinity assay, RIP1
T1 construct: purchased DiscoverX (KINOMEscan service); host or cells: E. coli BL21-derived host (T7 phage) or HEK-293
T1 sequence (Q13546 1-671): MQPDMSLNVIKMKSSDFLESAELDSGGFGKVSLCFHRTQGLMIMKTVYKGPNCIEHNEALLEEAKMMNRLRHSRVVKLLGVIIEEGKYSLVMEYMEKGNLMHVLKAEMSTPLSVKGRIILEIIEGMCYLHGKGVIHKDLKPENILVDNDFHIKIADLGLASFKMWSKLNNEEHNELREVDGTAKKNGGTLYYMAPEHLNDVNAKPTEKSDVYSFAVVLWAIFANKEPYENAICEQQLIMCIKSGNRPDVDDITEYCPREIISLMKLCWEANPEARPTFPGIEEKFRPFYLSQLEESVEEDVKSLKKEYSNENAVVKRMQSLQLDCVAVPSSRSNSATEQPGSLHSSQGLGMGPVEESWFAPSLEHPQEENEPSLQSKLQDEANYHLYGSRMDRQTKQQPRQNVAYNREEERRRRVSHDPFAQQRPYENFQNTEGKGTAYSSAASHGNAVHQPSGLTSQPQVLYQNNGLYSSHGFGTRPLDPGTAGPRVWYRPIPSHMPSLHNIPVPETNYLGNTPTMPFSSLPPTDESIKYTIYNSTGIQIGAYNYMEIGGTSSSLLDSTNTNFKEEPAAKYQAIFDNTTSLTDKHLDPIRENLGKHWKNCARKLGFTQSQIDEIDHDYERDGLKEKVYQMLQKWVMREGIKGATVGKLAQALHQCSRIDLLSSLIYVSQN

MLKL (full length) = molecular target: T2, MLKL (full length) (Homo sapiens, UniProt Q8NB16); assay: KINOMEscan binding affinity assay, MLKL
T2 construct: purchased DiscoverX (KINOMEscan service); host or cells: E. coli BL21-derived host (T7 phage) or HEK-293
T2 sequence (Q8NB16 1-471): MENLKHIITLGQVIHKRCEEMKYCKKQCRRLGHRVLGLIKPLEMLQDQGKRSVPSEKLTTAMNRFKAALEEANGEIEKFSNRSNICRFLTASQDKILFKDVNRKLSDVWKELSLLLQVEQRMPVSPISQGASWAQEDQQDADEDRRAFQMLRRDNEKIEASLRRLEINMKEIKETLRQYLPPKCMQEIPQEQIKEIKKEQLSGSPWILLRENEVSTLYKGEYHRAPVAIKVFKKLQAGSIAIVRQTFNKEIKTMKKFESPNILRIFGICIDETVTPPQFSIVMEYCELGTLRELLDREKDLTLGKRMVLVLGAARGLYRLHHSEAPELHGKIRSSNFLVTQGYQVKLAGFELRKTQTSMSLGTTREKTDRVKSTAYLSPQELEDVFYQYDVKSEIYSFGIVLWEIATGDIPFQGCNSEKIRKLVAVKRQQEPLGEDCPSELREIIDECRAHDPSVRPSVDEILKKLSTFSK

RIP3 = molecular target: T3, RIP3 (Homo sapiens, UniProt Q9Y572); assay: KINOMEscan binding affinity assay, RIP3
T3 construct: purchased DiscoverX (KINOMEscan service); host or cells: E. coli BL21-derived host (T7 phage) or HEK-293

| Kd (RIP1) [µM] | Kd (MLKL (full length)) [µM] | Kd (RIP3) [µM] | SMILES |
| --- | --- | --- | --- |
| 0.1 to 1 | < 0.1 | > 1 | NC(=O)c1c(-c2ccc(NC(=O)N3CCC[C@@H](c4ccccc4)C3)cc2)n[nH]c1Nc1cnccn1 [Compound 91, (3S)-N-(4-{4-carbamoyl-5-[(pyrazin-2-yl)amino]-1H-pyrazol-3-yl}phenyl)-3-phenylpiperidine-1-carboxamide] |
| < 0.1 | < 0.1 | > 1 | NC(=O)c1c(-c2ccc(NC(=O)N3CCC[C@H](c4ccccc4)C3)cc2)n[nH]c1Nc1cnccn1 [Compound 90, (3R)-N-(4-{4-carbamoyl-5-[(pyrazin-2-yl)amino]-1H-pyrazol-3-yl}phenyl)-3-phenylpiperidine-1-carboxamide] |
| > 1 | > 1 | > 1 | NC(=O)c1c(-c2ccc(Nc3c(N4CCCCC4)c(=O)c3=O)cc2)n[nH]c1Nc1ccccn1 [Compound 119, 3-(4-((3,4-dioxo-2-(piperidin-1-yl)cyclobut-1-en-1-yl)amino)phenyl)-5-(pyridin-2-ylamino)-1H-pyrazole-4-carboxamide] |
| > 1 | < 0.1 | > 1 | NC(=O)c1c(-c2ccc(NC(=O)N3CCc4ccccc4C3)cc2)n[nH]c1Nc1cccc(C(F)(F)F)n1 [Compound 75, N-(4-(4-carbamoyl-5-((6-(trifluoromethyl)pyridin-2-yl)amino)-1H-pyrazol-3-yl)phenyl)-3,4-dihydroiso-quinoline-2(1H)-carboxamide] |
| > 1 | > 1 | > 1 | N#Cc1ccc(Nc2[nH]nc(-c3ccc(NC(=O)Nc4ccc(OC(F)(F)F)cc4)cc3)c2C(N)=O)cc1 [Compound 113, 5-((4-cyanophenyl)amino)-3-(4-(3-(4-(trifluoromethoxy)phenyl)ureido)phenyl)-1H-pyrazole-4-carboxamide] |
| < 0.1 | < 0.1 | > 1 | NC(=O)c1c(-c2ccc(NC(=O)N3CCCC(c4cccc(C(F)(F)F)c4)C3)cc2)n[nH]c1Nc1cnccn1 (stereo not drawn) [Compound 98, N-(4-(4-carbamoyl-5-(pyrazin-2-ylamino)-1H-pyrazol-3-yl)phenyl)-3-(3-(trifluoromethyl)phenyl)piperidine-1-carboxamide] |
| > 1 | 0.1 to 1 | > 1 | Cc1nn(-c2ccccc2)c(C)c1C(=O)Nc1ccc(-c2n[nH]c(Nc3cccc(C(F)(F)F)n3)c2C(N)=O)cc1 [Compound 34, N-(4-(4-carbamoyl-5-((6-(trifluoromethyl)pyridin-2-yl)amino)-1H-pyrazol-3-yl)phenyl)-3,5-dimethyl-1-phenyl-1H-pyrazole-4-carboxamide] |
| > 1 | > 1 | > 1 | NC(=O)c1c(-c2ccc(NC(=O)Cc3ccc(C(F)(F)F)cc3)cc2)n[nH]c1Nc1ccccn1 [Compound 1, 3-(4-(2-(4-(trifluoromethyl)phenyl)acetamido)phenyl)-5-(pyridin-2-ylamino)-1H-pyrazole-4-carboxamide] |
| > 1 | < 0.1 | > 1 | COc1cc(Nc2[nH]nc(-c3ccc(NC(=O)N4CC(Cc5ccccc5)C4)cc3)c2C(N)=O)ccn1 [Compound 53, 3-(4-(3-benzylazetidine-1-carboxamido)phenyl)-5-((2-methoxypyridin-4-yl)amino)-1H-pyrazole-4-carboxamide] |
| > 1 | 0.1 to 1 | > 1 | CN(C)c1c(Nc2ccc(-c3n[nH]c(Nc4ccccn4)c3C(N)=O)cc2)c(=O)c1=O [Compound 117, 3-(4-((2-(dimethylamino)-3,4-dioxocyclobut-1-en-1-yl)amino)phenyl)-5-(pyridin-2-ylamino)-1H-pyrazole-4-carboxamide] |
| > 1 | 0.1 to 1 | > 1 | COc1cc(Nc2[nH]nc(-c3ccc(NC(=O)N4CCC(c5c(C)noc5C)C4)cc3)c2C(N)=O)ccn1 (stereo not drawn) [Compound 73, 3-(4-(3-(3,5-dimethylisoxazol-4-yl)pyrrolidine-1-carboxamido)phenyl)-5-((2-methoxypyridin-4-yl)amino)-1H-pyrazole-4-carboxamide] |
| > 1 | > 1 | > 1 | NC(=O)c1c(-c2ccc(NC(=O)c3cnn(-c4ccc(OC(F)(F)F)cc4)c3)cc2)n[nH]c1Nc1cccc(C(F)(F)F)n1 [Compound 35] |
| > 1 | 0.1 to 1 | 0.1 to 1 | COCCOc1cccc(Nc2[nH]nc(-c3ccc(NC(=O)Cc4ccccc4)cc3)c2C(N)=O)n1 [Compound 43, 5-((6-(2-methoxyethoxy)pyridin-2-yl)amino)-3-(4-(2-phenyl-acetamido)phenyl)-1H-pyrazole-4-carboxamide] |
| > 1 | > 1 | > 1 | COc1ccc(Nc2c(Nc3ccc(-c4n[nH]c(Nc5ccccn5)c4C(N)=O)cc3)c(=O)c2=O)cc1 [Compound 121, 3-(4-((2-((4-methoxyphenyl)amino)-3,4-dioxocyclobut-1-en-1-yl)amino)phenyl)-5-(pyridin-2-ylamino)-1H-pyrazole-4-carboxamide] |
| > 1 | < 0.1 | > 1 | NC(=O)c1c(-c2ccc(NC(=O)N3Cc4ccccc4C3)cc2)n[nH]c1Nc1cnccn1 [Compound 102, N-(4-(4-carbamoyl-5-(pyrazin-2-ylamino)-1H-pyrazol-3-yl)phenyl)isoindoline-2-carboxamide] |
| > 1 | < 0.1 | > 1 | COc1cc(Nc2[nH]nc(-c3ccc(NC(=O)c4cnn(-c5ccccc5)c4)cc3)c2C(N)=O)ccn1 [Compound 38, N-(4-(4-carbamoyl-5-((2-methoxypyridin-4-yl)amino)-1H-pyrazol-3-yl)phenyl)-1-phenyl-1H-pyrazole-4-carboxamide] |
| > 1 | < 0.1 | > 1 | COc1cc(Nc2[nH]nc(-c3ccc(NC(=O)NCc4ccccc4)cc3)c2C(N)=O)ccn1 [Compound 68, 3-(4-(3-benzylureido)phenyl)-5-((2-methoxypyridin-4-yl)amino)-1H-pyrazole-4-carboxamide] |
| > 1 | < 0.1 | > 1 | NC(=O)c1c(-c2ccc(NC(=O)Cc3cccc(Cl)c3)cc2)n[nH]c1Nc1cnccn1 [Compound 26, 3-(4-(2-(3-chlorophenyl)acetamido)phenyl)-5-(pyrazin-2-ylamino)-1H-pyrazole-4-carboxamide] |
| > 1 | 0.1 to 1 | > 1 | COc1cc(Nc2[nH]nc(-c3ccc(NC(=O)N4CCC(c5ccccc5)CC4)cc3)c2C(N)=O)ccn1 [Compound 49, N-(4-(4-carbamoyl-5-((2-methoxypyridin-4-yl)amino)-1H-pyrazol-3-yl)phenyl)-4-phenylpiperidine-1-carboxamide] |
| > 1 | 0.1 to 1 | > 1 | CC(C(=O)Nc1ccc(-c2n[nH]c(Nc3ccccn3)c2C(N)=O)cc1)c1ccccc1 (stereo not drawn) [Compound 6, 3-(4-(2-phenyl-propanamido)phenyl)-5-(pyridin-2-ylamino)-1H-pyrazole-4-carboxamide] |
| 0.1 to 1 | < 0.1 | > 1 | COc1cc(Nc2[nH]nc(-c3ccc(NC(=O)N4CCC[C@@H](c5ccccc5)C4)cc3)c2C(N)=O)ccn1 [Compound 60, (S)-N-(4-(4-carbamoyl-5-((2-methoxypyridin-4-yl)amino)-1H-pyrazol-3-yl)phenyl)-3-phenylpiperidine-1-carboxamide] |
